By koff is commonly meant the first-order rate constant of dissociation. Low values mean a long-lived complex, high ones a short-lived complex. The term kon denotes the rate constant with which the complex forms. As usually defined, the EC50 (read off the curve) is the concentration needed to bring the measured effect to its halfway point. A low value points to an effect from little substance.

Chains of the proteins cited; added tags and fusions are not shown. Residues count along the entry.
UniProt P01375, 77-233 limits assumed: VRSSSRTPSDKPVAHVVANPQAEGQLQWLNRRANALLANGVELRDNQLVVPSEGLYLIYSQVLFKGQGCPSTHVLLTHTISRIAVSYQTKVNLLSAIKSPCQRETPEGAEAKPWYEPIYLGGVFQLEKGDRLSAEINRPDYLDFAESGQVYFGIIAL

Experimental findings from patent US20090118127A1 (Janssen / Centocor, published 2009) are described below.

Experiment [1] has as its target T1, human tumor necrosis factor alpha (TNFα) (human, UniProt P01375 77-233).
T1 construct: also called human TNFα
As to the kind of experiment: Biacore (SPR), 3 pairs of experiments. A general note: Surface plasmon resonance follows binding to a sensor surface in real time, without labels.

In experiment [2] the target is T1, human tumor necrosis factor alpha (TNFα). As to the kind of experiment: ELISA, human TNFα coated on the plate, bound antibody detected with HRP anti-human kappa. How it is done:
Antibodies were assessed for binding to human TNFα using an ELISA format. Briefly, human TNFα was coated into the wells of a 96 well plate and candidate mAbs were incubated at various concentrations (20 to 0.2 ng/ml) and bound antibody was detected with HRP-labeled anti-human kappa light chain IgG (Jackson, ImmunoResearch, West Grove, Pa.).
On the technique in general: ELISA stands for enzyme-linked immunosorbent assay.

B1: REMICADE® brand of infliximab (antibody, V domains shown)
VH: EVKLEESGGGLVQPGGSMKLSCVASGFIFSNHWMNWVRQSPEKGLEWVAEIRSKSINSATHYAESVKGRFTISRDDSKSAVYLQMTDLRTEDTGVYYCSRNYYGSTYDYWGQGTTLTVS
VL: DILLTQSPAILSVSPGERVSFSCRASQFVGSSIHWYQQRTNGSPRLLIKYASESMSGIPSRFSGSGSGTDFTLSINTVESEDIADYYCQQSHSWPFTFGSGTNLEVK
notes: also called cA2
Regarding B1, in experiment [1], the koff was found to be 9.68e-05 s⁻¹ and the kon was determined as 547000 M⁻¹ s⁻¹. Besides, the “EC50 (read off the curve)” value in experiment [2] was about 3 ng/mL.
